Laboratory results from article PMC10907358, “Identification of oleic acid as an endogenous ligand of GPR3” (Cell Research, 2024).

Chains of the proteins cited; added tags and fusions are not shown. Lines headed by an entry give the natural chain unless they say otherwise; changes in a name come on top.
UniProt P46089: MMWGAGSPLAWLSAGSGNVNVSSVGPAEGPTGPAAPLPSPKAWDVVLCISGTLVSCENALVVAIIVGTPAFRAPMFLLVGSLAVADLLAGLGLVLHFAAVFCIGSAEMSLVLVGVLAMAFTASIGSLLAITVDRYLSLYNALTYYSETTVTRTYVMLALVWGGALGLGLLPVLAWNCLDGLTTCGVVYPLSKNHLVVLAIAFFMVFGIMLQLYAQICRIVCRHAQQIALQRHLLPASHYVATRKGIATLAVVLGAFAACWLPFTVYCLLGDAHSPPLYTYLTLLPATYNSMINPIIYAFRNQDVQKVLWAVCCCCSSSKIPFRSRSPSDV

Target: T1, GPR3 (Homo sapiens, UniProt P46089)
T1 construct: expressed in transfected cells
Experiment: GloSensor cAMP assay in GPR3 stably expressing AD293 cell line (agonist mode)
Assay type: cell-based
Settings: Ec50, cAMP induction
Method: The GloSensor cAMP assay was performed according to the instructions of Promega. AD293 cells were split into 6-well plate (300,000 cells/mL) and then transfected with the pGloSensor™-22F cAMP plasmid and pcDNA3-GPR3 plasmid by Lipofectamine 2000, at a ratio of 2:1 (μL:μg). 24 h after transfection, cells were split into 96-well plate for another 24 h incubation. After removal of cell medium, 90 μL of 3% v/v (the GloSensor cAMP reagent vs serum-free medium) substrate was added into each well. After 2 h incubation at RT, background measurements were taken, and then 10 μL 10× stock compounds were added for the second measurements of ligand activation via EnVision 2105 (PerkinElmer). Relative cAMP level was calculated by the cAMP level after addition of ligand divided by the cAMP level before addition of ligand (basal level). Stock FAs (i.e., 10–50 mM) were solubilized in DMSO, then diluted in cell culture buffer to designated concentrations and sonicated to ensure that they were evenly distributed in the buffer before being added to cells.
AD293 cells were split into 6-well plate (300,000 cells/mL), and then transfected with the pGloSensor™-22F cAMP plasmid and the pcDNA6-GPR3-3× FLAG plasmid (WT receptor or the mutants, F120A^3.36, W260A^6.48, L283F^7.39, A201W^5.46, Y280A^7.36, H96A^2.60 and H96A^2.60/Y280A^7.36) by Lipofectamine 2000 at a ratio of 2:1 (μL:μg). […]

c1ccc2c(c1)[I+]c1ccccc1-2 [DPI, diphenyleneiodonium chloride]
EC50: 315 µM
